The values that follow are results of earlier work, collected in PMC12107553 (ACS chemical neuroscience, 2024).

As usually defined, the IC50 is the point on the concentration scale where inhibition reaches its midpoint.

The data set has as its target HIV reverse transcriptase (RT) (Human immunodeficiency virus type 1 group M subtype B, UniProt P03366). The settings on record: read-out: HIV RT IC50; cited from earlier work.

Consider `Cc1cc(C#N)cc(C)c1Oc1nc(Nc2ccc(C#N)cc2)nc(N)c1Br` [Etravirine], for which the IC50 is 0.573 µM.
